Results as given in patent US8962670B2, “Anti-cancer agents” (UWM Research Foundation, Inc., priority 2011, dated 2015).

Columns and labels:
U251 (CNS Cancer) = test: cells; format: cell-based; settings: Homo sapiens, U-251
SK-OV-3 (Ovarian) = test: cells; format: cell-based; settings: Homo sapiens
SNB-19 (CNS Cancer) = test: cells; format: cell-based; settings: Homo sapiens
[1] = test system: Normal lymphocytes obtained from healthy donors
49 mer DNA duplex 292 = format: biochemical

Question: With CC1(C)OB(c2ccc(N(CCCl)CCOS(C)(=O)=O)cc2)OC1(C)C [Compound 6] as the compound, how does the GI50 (U251 (CNS Cancer)) read?
Answer: 0.7 µM

Question: Which GI50 (SK-OV-3 (Ovarian)) does the source give for CC1(C)OB(c2ccc(N(CCCl)CCCl)cc2)OC1(C)C [Compound 7, N,N-bis(2-chloroethyl)-4-(4,4,5,5-tetramethyl-1,3,2-dioxaborolan-2-yl)aniline] here?
Answer: 8.03 µM

Question: And the GI50 (SNB-19 (CNS Cancer))?
Answer: 8.06 µM

Question: How did the “apoptosis compared to time-matched controls” value [1] turn out when CC1(C)OB(c2ccc(C[N+](C)(CCCl)CCCl)cc2)OC1(C)C [Compound 40, N,N-Bis(2-chloroethyl)-N-methyl-N-[4-(4,4,5,5-tetramethyl-1,3,2-dioxaborolan-2-yl)phenyl]methanaminium bromide] was run?
Answer: no increase in apoptosis

Question: What about the “concentration of H2O2 at which DNA crosslinking was observed (as low as)” value (49 mer DNA duplex 292) of the same compound?
Answer: 50 µM
